For one experiment, the system named is C2C12 AMPKα1α2−/− cells. Description: Glucose uptake (3H-2-deoxyglucose) in differentiated C2C12 AMPKα1α2−/− cells. Format: cell-based, murine. The note with it: 30 or 100 μM Lusianthridin, 300 nM Insulin, 1 h at 37° C. From the text:
(§1) In order to test whether the ability of Lusianthridin to increase glucose uptake in C2C12 myotubes is dependent on AMPK, we generated C2C12 cells lacking both isoforms of the catalytic AMPKα subunit, AMPKα1α2−/−. C2C12 AMPK α1α2 double knockout cell lines were generated by transient transfection of wild type cells with plasmids containing Cas9 enzyme linked to green fluorescent protein expression and Cas9 guide RNA sequences targeting the murine AMPK α1 subunit (sc-430618, SantaCruz) and the murine AMPK α2 subunit (sc-430803, SantaCruz). Cells positive for green fluorescent protein expression were single cell sorted by flow cytometry into 96-well plates containing growth medium and analysed for loss of AMPK signaling following expansion of the clones.
(§2) Differentiated C2C12 AMPKα1α2+/+ and AMPKα1α2−/− cells were treated with either vehicle (0.2% DMSO), 30 μM or 100 μM Lusianthridin for 1 h at 37° C. In addition, the insulin-dependent/AMPK-independent glucose uptake was also assessed by treating C2C12 cells with 300 nM Insulin for 1 h in the presence or absence of the 15 nM Wortmanin, an inhibitor of insulin-signalling. […]
(§3) Glucose uptake was determined by monitoring the uptake of 3H-2-deoxyglucose into cells. […] Cells were lysed and the quantity of ^3H determined in these samples using a scintillation counter. […]

A further experiment relates to C2C12 AMPKα1α2+/+ cells. Nature of the experiment: Glucose uptake (3H-2-deoxyglucose) in differentiated C2C12 AMPKα1α2+/+ cells. Format: cell-based, murine.
Text: as §1, §2, §3

In the case of Insulin [reference compound], the “glucose uptake (fold change relative to control)” value in the experiment with C2C12 AMPKα1α2−/− cells is given as “unaffected”; in the experiment with C2C12 AMPKα1α2+/+ cells (C2C12 AMPKα1α2+/+, 30 or 100 μM Lusianthridin, 300 nM Insulin, 1 h at 37° C), “increase in glucose uptake”. Further, the “effect of Wortmanin on stimulated glucose uptake” value in the experiment on C2C12 AMPKα1α2+/+ cells (in the presence of 15 nM Wortmanin (1 h pre-incubation), 100 μM Lusianthridin or 300 nM Insulin, 1 h) is given as “abolished”.
